The values that follow are results of earlier work, collected in patent publication US7399860B2, “Manufacture of polyglutamate-therapeutic agent conjugates” (Cell Therapeutics Inc., priority 1999, dated 2008).

For data set [1] the following is noted: compared with unconjugated paclitaxel (background).
For data set [2] the following is noted: compared with unconjugated paclitaxel (background). This is another data set of the same source.
In a further data set the test system is tumor. The following applies: tumor-bearing hosts; U.S. Pat. No. 5,977,163; Li et al. 1998.

Consider polyglutamic acid-paclitaxel conjugate, for which the water solubility result in data set [1] is “increased water solubility”. In data set [2], the “accumulation in the tumor” value was “increased accumulation in the tumor” and the “clearance from the body” value is reported as “slower clearance”. Further, in the data set with tumor, the “toxicity compared with the unconjugated form of the drug” value is “decreased toxicity”.
